By UniProt entry, the sequences of proteins in these tests, tags left out.
UniProt P35462, whole entry: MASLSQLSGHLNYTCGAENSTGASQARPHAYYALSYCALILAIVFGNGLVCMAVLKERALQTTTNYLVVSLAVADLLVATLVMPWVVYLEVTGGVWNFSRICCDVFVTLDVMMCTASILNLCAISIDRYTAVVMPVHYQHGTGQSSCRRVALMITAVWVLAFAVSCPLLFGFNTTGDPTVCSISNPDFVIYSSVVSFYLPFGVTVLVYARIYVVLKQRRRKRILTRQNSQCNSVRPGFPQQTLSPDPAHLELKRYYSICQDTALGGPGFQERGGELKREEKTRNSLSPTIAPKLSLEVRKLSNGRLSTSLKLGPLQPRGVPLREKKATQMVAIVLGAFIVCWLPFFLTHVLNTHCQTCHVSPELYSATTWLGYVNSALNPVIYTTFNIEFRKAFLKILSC

According to article PMC9898996 (Bioorganic & medicinal chemistry, 2022):

Molecular target: human D3 receptor (Homo sapiens, UniProt P35462)

Q: How did the Emax turn out when `CCCN(CCC)C1CCc2c(O)cccc2C1` (single isomer, unassigned; (-)) [(−)-5-OH-DPAT, 5-OH-DPAT] was run?
A: 75 ± 4%
